# Key:
# Chains of the proteins cited; added tags and fusions are not shown. Lines headed by an entry give the natural chain unless they say otherwise; changes in a name come on top.
# UniProt P34914: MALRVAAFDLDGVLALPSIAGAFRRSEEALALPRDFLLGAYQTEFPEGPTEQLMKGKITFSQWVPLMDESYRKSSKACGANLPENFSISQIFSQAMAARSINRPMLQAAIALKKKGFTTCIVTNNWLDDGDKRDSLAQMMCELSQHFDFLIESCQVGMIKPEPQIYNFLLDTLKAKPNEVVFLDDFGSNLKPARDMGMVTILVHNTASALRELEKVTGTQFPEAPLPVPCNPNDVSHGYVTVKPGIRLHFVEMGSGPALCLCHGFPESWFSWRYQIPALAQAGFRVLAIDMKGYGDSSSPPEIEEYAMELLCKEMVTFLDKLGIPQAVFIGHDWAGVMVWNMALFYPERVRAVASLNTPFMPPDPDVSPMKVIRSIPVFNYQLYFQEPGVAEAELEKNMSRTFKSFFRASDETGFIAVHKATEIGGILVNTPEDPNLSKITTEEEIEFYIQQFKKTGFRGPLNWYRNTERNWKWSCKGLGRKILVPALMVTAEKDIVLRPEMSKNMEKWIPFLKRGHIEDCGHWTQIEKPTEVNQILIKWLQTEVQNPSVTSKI
# [1] = target: Murine sEH (Mus musculus, UniProt P34914); assay: Fluorescent-based sEH inhibition assay; details: read-out: IC50 Murine sEH; pH 7
# [2] = tested on: LPS-induced release of inflammatory cytokines in plasma; assay: Plasma cytokines in LPS-challenged murine model; details: LPS-challenged mice
Structure (SMILES),IC50 [1],reduction of cytokine or chemokine release one day after treatment [2]
"CC(=O)N1CCC(NC(=O)NC23CC4CC(CC(C4)C2)C3)CC1 [APAU, 1-(1-acetypiperidin-4-yl)-3-adamantanylurea]",9 nM,
"O=C(NC12CC3CC(CC(C3)C1)C2)N[C@H]1CC[C@H](Oc2ccc(C(=O)O)cc2)CC1 [t-AUCB, trans-4-[4-(3-adamantan-1-yl-ureido)-cyclohexyloxy]-benzoic acid, reference compound]",,Neither the administration of TPPU nor the t-AUCB treatment demonstrated a beneficial effect

# Reference: article PMC3596469 (European journal of pharmaceutical sciences : official …, 2013)
